Test results published in ChEMBL document CHEMBL2311250 (Bioorg Med Chem Lett, 2013).

Sequences of proteins named here, by UniProt entry; tags and fusion partners are left off. A change or cut given only in a name is not applied to a line headed by its entry.
UniProt O14920: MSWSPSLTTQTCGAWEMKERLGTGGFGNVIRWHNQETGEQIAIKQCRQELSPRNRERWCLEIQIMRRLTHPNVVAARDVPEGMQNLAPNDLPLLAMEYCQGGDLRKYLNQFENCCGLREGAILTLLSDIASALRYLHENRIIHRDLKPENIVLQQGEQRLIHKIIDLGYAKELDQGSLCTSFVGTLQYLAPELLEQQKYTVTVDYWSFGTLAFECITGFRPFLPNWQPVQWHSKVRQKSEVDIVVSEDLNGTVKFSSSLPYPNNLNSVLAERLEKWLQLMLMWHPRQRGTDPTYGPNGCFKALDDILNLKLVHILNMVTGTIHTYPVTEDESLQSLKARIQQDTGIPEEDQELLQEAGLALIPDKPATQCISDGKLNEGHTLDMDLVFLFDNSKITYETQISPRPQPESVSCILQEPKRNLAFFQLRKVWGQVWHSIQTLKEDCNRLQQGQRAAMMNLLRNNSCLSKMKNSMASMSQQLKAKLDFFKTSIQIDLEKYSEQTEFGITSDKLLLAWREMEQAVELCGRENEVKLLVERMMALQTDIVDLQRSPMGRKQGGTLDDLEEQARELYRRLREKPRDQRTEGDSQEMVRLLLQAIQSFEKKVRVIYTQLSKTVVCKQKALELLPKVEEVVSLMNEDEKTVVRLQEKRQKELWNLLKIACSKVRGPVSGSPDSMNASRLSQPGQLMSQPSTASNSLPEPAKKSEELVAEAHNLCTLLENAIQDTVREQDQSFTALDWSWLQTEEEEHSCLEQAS
UniProt Q06187: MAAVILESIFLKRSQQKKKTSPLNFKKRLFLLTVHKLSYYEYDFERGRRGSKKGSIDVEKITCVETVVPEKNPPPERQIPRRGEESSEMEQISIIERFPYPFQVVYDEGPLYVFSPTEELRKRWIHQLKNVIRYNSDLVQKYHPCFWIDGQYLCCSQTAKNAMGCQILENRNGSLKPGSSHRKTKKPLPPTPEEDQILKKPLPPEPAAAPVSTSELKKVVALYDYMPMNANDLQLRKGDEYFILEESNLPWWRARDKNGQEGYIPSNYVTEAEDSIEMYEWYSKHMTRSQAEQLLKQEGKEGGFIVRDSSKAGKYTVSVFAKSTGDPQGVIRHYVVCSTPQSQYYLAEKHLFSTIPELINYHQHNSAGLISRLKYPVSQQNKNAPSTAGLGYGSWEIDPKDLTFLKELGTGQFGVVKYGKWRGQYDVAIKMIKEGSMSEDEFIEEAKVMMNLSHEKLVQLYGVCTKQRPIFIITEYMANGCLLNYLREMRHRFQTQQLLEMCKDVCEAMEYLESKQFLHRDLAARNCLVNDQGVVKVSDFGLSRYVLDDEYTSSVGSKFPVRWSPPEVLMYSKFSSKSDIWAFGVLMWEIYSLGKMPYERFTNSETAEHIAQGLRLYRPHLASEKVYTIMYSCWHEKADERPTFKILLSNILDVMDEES
UniProt P31749: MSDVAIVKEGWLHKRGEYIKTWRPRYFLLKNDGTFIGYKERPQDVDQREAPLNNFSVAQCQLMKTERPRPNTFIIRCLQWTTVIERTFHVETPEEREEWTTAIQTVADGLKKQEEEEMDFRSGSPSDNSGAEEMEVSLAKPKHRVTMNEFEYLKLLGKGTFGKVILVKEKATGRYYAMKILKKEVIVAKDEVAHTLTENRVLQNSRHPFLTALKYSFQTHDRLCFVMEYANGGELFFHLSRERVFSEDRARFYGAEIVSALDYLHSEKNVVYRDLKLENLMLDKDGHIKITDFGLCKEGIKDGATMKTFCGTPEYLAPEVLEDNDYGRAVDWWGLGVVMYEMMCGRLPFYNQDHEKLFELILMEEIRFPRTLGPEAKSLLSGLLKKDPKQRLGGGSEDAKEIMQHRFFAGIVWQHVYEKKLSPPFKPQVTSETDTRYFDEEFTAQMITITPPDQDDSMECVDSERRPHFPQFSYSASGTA
UniProt P28482, whole entry: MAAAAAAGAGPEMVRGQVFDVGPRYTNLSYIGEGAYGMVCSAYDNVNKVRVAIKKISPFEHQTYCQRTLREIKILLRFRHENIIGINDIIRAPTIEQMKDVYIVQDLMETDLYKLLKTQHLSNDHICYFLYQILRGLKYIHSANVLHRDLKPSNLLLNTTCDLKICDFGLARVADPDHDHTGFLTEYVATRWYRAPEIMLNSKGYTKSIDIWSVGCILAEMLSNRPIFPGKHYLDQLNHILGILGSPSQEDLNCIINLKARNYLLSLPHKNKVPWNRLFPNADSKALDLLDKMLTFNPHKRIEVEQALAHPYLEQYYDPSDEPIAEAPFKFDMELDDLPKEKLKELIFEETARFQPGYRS
UniProt Q14012: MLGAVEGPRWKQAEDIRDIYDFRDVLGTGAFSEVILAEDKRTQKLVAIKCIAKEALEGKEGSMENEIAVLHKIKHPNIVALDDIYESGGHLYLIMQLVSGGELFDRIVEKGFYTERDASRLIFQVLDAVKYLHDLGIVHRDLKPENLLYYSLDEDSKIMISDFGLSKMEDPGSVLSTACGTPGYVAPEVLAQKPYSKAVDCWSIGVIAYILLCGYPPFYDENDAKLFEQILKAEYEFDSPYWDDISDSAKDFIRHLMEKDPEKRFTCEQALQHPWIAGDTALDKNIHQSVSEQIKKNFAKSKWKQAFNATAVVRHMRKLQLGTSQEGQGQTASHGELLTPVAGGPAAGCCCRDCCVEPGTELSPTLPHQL
UniProt Q9P289: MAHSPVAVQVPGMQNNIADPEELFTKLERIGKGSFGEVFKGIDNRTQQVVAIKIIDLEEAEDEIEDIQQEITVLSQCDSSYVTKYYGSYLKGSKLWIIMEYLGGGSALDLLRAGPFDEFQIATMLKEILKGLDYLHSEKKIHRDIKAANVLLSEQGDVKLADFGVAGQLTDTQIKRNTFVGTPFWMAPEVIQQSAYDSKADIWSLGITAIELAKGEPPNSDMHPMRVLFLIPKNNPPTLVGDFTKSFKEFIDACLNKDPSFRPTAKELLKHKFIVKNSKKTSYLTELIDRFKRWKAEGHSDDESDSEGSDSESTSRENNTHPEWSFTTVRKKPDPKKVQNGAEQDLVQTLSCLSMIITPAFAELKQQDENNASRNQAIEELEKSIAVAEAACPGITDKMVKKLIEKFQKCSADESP
UniProt Q9P0L2: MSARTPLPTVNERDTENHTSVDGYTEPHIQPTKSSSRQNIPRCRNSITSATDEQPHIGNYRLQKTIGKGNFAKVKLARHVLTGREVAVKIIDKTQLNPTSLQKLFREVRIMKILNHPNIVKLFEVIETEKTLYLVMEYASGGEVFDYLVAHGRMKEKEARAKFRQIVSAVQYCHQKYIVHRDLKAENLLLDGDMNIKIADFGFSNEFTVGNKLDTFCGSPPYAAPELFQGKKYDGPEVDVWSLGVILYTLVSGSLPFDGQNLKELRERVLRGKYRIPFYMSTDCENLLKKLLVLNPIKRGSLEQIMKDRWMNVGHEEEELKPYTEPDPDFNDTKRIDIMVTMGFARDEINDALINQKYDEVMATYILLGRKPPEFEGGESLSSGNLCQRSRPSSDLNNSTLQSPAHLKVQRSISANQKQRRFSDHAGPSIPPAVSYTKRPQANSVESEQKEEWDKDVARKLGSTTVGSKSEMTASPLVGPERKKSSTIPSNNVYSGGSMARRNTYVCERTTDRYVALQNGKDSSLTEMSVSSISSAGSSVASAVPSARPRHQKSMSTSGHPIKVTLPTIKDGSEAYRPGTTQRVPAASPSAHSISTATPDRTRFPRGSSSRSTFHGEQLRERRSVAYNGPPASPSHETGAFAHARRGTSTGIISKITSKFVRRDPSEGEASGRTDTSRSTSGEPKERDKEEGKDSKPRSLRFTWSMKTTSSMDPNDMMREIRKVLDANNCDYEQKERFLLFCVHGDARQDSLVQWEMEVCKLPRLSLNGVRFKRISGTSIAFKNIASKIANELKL
UniProt P29317, whole entry: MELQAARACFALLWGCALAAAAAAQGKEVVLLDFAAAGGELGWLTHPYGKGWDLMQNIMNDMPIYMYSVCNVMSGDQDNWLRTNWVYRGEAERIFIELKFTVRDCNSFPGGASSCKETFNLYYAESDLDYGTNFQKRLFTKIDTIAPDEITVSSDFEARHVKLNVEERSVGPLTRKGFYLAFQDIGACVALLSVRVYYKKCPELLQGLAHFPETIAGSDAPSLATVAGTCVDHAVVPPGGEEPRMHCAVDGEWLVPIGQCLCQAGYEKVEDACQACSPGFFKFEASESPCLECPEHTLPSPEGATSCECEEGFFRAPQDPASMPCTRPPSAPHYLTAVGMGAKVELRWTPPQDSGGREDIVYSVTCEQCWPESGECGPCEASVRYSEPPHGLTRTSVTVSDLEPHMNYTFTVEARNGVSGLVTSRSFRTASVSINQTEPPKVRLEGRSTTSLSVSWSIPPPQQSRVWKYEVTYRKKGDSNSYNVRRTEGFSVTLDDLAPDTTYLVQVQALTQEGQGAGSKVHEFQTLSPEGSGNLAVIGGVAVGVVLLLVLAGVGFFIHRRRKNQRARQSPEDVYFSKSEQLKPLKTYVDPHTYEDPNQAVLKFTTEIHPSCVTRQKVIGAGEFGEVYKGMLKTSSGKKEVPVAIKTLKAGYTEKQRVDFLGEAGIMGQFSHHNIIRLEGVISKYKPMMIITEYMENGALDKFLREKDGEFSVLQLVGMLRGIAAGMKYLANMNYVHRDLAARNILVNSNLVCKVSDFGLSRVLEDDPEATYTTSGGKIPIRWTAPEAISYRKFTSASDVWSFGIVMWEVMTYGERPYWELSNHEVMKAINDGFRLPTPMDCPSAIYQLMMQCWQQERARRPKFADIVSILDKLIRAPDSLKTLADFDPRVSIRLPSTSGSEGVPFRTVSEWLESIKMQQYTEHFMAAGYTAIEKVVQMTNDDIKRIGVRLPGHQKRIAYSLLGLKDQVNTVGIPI

Columns and labels:
[1] = target: Inhibitor of nuclear factor kappa-B kinase subunit beta (Homo sapiens, UniProt O14920); assay: Inhibition of IKK-beta (unknown origin) in presence of ATP
[2] = target: T1, Serine/threonine-protein kinase Chk1 (Homo sapiens, UniProt O14757); assay: Inhibition of CHK1 (unknown origin) in presence of ATP
T1 sequence (O14757 whole entry): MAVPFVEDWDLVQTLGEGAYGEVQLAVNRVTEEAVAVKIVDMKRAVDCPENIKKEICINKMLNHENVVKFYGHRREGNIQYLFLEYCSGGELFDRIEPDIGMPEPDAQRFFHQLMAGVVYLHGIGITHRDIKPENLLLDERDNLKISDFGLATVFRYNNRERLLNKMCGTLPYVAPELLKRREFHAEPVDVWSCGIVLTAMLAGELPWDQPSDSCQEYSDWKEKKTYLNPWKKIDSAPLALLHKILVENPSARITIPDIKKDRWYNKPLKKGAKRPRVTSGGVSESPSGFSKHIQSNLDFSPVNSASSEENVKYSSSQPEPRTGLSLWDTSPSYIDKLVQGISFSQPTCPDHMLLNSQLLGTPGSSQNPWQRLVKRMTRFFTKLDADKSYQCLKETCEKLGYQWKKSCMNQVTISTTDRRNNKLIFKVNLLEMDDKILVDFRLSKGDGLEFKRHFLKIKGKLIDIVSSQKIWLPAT

[3] = target: Tyrosine-protein kinase BTK (Homo sapiens, UniProt Q06187); assay: Inhibition of BTK (unknown origin) in presence of ATP
Aurora kinase A = target: T2, Aurora kinase A (Homo sapiens, UniProt O14965); assay: Inhibition of Aurora-A (unknown origin) in presence of ATP
T2 sequence (O14965 whole entry): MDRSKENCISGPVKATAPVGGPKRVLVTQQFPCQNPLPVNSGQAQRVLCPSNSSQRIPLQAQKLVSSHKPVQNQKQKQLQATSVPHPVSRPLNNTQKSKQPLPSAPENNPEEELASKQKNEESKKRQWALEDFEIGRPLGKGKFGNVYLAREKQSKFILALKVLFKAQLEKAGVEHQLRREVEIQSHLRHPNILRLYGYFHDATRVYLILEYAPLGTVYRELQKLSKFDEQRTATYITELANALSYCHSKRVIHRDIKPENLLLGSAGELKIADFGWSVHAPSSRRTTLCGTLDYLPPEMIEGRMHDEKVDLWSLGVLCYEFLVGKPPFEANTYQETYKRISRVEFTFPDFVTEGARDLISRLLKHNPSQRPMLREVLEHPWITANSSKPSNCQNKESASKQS

[4] = target: RAC-alpha serine/threonine-protein kinase (Homo sapiens, UniProt P31749); assay: Inhibition of AKT1 (unknown origin) in presence of ATP
[5] = target: Mitogen-activated protein kinase 1 (Homo sapiens, UniProt P28482); assay: Inhibition of MAPK1/ERK2 (unknown origin) in presence of ATP
[6] = target: T3, Serine/threonine-protein kinase 3 (Homo sapiens, UniProt Q13188); assay: Inhibition of MST2 (unknown origin) in presence of ATP
T3 sequence (Q13188 whole entry): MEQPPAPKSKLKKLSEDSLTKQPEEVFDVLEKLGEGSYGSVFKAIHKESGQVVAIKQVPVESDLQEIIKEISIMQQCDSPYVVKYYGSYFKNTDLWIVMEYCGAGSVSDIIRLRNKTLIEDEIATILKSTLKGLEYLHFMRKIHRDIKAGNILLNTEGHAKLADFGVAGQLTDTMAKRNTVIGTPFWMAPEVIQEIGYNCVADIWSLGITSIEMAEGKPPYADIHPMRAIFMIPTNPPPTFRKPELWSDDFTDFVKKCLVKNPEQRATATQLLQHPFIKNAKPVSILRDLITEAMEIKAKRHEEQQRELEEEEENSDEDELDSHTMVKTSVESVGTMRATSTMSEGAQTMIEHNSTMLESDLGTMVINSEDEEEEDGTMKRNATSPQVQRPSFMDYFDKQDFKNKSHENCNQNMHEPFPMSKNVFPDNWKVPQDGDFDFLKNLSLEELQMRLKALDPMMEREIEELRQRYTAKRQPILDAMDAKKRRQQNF

[7] = target: Calcium/calmodulin-dependent protein kinase type 1 (Homo sapiens, UniProt Q14012); assay: Inhibition of CAMK1 (unknown origin) in presence of ATP
[8] = target: Serine/threonine-protein kinase 26 (Homo sapiens, UniProt Q9P289); assay: Inhibition of MASK (unknown origin) in presence of ATP
[9] = target: Serine/threonine-protein kinase MARK1 (Homo sapiens, UniProt Q9P0L2); assay: Inhibition of MARK1 (unknown origin) in presence of ATP
Ephrin type-A receptor 2 = Ephrin type-A receptor 2 (Homo sapiens, UniProt P29317); assay: Inhibition of ECK (unknown origin) in presence of ATP

Measured: IC50

CN1CCC(NC(=O)c2cnc(Nc3cc(Cl)cc(Cl)c3)nc2NC2CCC(N(C)C)CC2)CC1 (stereo not drawn)
30 µM: [1] | [2]

COc1ccccc1CNc1ncc(C(=O)NC2CCN(C)CC2)c(NC2CCCC2)n1
30 µM: [3] | Aurora kinase A | [4]

CN1CCC(NC(=O)c2cnc(NCc3cc(Cl)ccc3Cl)nc2NC2CCCC2)CC1
30 µM: [5] | [1]

CN1CCC(NC(=O)c2cnc(Nc3cc(Cl)cc(Cl)c3)nc2N[C@@H]2COC[C@H]2O)CC1
30 µM: [6] | [5] | [7] | [8] | [9] | Ephrin type-A receptor 2
